Data on 14 substances can be found in patent US12678489B2, “Multi-receptor agonist and medical use thereof” (JIANGSU HANSOH PHARMACEUTICAL GROUP CO., LTD., priority 2019, dated 2026).

Protein sequences, listed by entry. Tags and fused reporters are not part of them. Residues count along the entry.
UniProt P43220, 24-463: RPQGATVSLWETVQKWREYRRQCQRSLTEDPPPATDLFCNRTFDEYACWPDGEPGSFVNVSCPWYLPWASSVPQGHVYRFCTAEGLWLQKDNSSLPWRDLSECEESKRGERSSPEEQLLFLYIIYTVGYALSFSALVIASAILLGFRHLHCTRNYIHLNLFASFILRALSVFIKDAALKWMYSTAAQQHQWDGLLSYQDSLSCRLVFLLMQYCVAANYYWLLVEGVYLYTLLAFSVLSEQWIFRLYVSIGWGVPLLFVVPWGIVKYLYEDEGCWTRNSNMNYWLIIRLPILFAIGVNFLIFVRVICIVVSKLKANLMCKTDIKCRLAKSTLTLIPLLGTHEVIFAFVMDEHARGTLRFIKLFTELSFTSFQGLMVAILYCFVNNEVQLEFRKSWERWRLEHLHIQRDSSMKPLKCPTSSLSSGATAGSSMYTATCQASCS

Series [1] has as its target T1, human GLP-1R (Homo sapiens, UniProt P43220).
T1 construct: expressed in transfected cells; host or cells: CHO-K1 (stably transfected, with CRE-luc reporter)
The series is described as follows: Agonistic activity for GLP-1R, cAMP HTRF in CHO-K1/GLP-1R/CRE-luc stably transfected cells. In kind it is cell-based.

Series [2] concerns the target T2, human GIPR (Homo sapiens, UniProt P48546).
T2 construct: expressed in transfected cells; host or cells: wild-type CHO-K1, transient transfection with hGIPR plasmid (Fugene HD)
T2 sequence (P48546 22-466): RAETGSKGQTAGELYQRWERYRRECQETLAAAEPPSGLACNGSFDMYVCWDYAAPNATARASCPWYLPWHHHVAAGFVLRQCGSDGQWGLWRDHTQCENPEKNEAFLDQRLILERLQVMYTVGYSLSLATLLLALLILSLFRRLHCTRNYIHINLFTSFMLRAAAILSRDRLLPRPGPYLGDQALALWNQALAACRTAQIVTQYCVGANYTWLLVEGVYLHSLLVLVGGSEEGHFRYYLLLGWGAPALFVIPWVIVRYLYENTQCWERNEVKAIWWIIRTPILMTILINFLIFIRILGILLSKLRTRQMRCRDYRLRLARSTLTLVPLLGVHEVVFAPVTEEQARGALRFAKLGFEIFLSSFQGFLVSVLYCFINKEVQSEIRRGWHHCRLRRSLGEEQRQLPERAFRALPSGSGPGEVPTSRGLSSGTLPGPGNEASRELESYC
The series is described as follows: Agonistic activity for GIPR, cAMP HTRF in CHO-K1 cells transiently transfected with hGIPR. The class given is cell-based. The method, then: Wild-type CHO-K1 cells were collected, and the cell suspension was adjusted to an appropriate density, plated in a 6-well plate at 2 mL per well, and placed in a 37° C., 5% CO2 incubator for adhesion overnight. The mixture for transfection (hGIPR plasmid, Fugene HD (Promega Cat #E2311), OptiMEM (Gibco Cat #31985070)) was mixed well, placed at room temperature for 15 minutes, and was added at 100 μL to the corresponding cell well. After transfection of CHO-K1 cells for 24 h, hGIPR was over-expressed on the cell surface. The cells in 6-well plate were collected after the transient transfection, and were washed once with the experimental buffer (DMEM/F12 medium (Gibco Cat #11330032) comprising 0.1% casein (Sigma Cat #C3400)), and the cell density was adjusted with the experimental buffer. The cells were plated at a density of 5000 cells/5 μL/well in a 384-well plate (Sigma Cat #CLS4514), and then 2.5 μL of IBMX working solution (Sigma Cat #17018) prepared with buffer solution (the final concentration of IBMX was 0.5 mM) and 2.5 μL of the gradient diluted polypeptide sample were added into each well, centrifuged at 1000 rpm for 1 min, shaken for 30 seconds to mix well, and incubated at room temperature for 30 minutes. Cisbio cAMP-Gs Dynamic kit (Cisbio Cat #62 AM4PEC) was used for detection. cAMP-d2 and Anti-cAMP-Eu3+-Cryptate were diluted with 20-fold cAMP Lysis & Detection Buffer respectively, and mixed well. 5 μL of the diluted cAMP-d2 solution was added into each well, and then 5 μL of the diluted Anti-cAMP-Eu3+-Cryptate solution was added into each well, shaken for 30 seconds to mix well, and incubated at room temperature for 1 hour in the dark.
HTRF signal was read with Biotek Synergy H1 microplate reader, with the excitation wavelength of 320 nm, and emission wavelength of 620 nm and 665 nm. The signal ratio (665 nm/620 nm*10,000) was calculated, and the signal ratio was nonlinear fitted to the sample concentration with four-parameter equation in GraphPad Prism 6, resulting in the EC50 values.

Series [3] is described as follows: Stability of the compounds in SD rat plasma (LC-MS). In kind it is in vitro ADME. The conditions noted are these: for Relative content of the residual compounds in plasma (%) 0 min: 0 min (control, set to 100%). The method, then:
Five microliters of samples with concentrations of 20, 50, 100, 200, 500, 1000, 2000, 5000, 10000 ng/ml were added into 45 microliters of SD rat plasma, and the compound contents were detected by LC-MS, and a standard curve was plotted. 5 microliters of the polypeptide solution with a concentration of 1 mg/ml was added into 45 microliters of SD rat plasma. Five samples were prepared for each test compound, and 1 sample was taken out at 0 min, 30 min, 60 min, 120 min, and 240 min respectively. The content of the residual compounds was detected by LC-MS. The content at 0 min was used as control (100%), and the relative contents of the residual compound in the sample at other time points were calculated. The LC-MS method for the detection of the compounds was as follows: 5% acetonitrile solution was prepared as solution A, and 95% acetonitrile solution was prepared as solution B; 15 microliters of samples were injected at a flow rate of 0.6 ml/min, the time duration and the solution gradient ratio were as shown in the following table; the content of the compound was detected with Raptor Biphenyl 2.7 micron detection column.

Series [4] in a line: Pharmacokinetics in mice, single intravenous injection. In kind it is in vivo. Conditions: Balb/c mice, intravenous (tail vein), 30 nanomoles per kilogram, plasma. The method, then:
Male Balb/c mice weighing 18-30 grams and 7-9 weeks old were purchased from Shanghai Jiesijie Laboratory Animal Co., Ltd. The numbered compounds were prepared with 20 mM citrate buffer (pH=7.0), and then were injected into the mice via tail vein at a dose of 30 nanomoles per kilogram of body weight. 0.2 ml of the blood was sampled at time points of 0 hour, 0.083 hour, 0.25 hour, 0.5 hour, 1 hour, 2 hour, 4 hour, 6 hour, 8 hour, 24 hour and 32 hour. The collected mouse blood was centrifuged at 6000 rpm for 6 minutes at a temperature of 4° C. to isolate plasma. The content of the numbered compound in mouse plasma was detected by the experimental method of Test example 3.3.

A short description of series [5]: Pharmacokinetics in rats, single subcutaneous injection. In kind it is in vivo. Conditions: SD rats, 50 nanomoles per kilogram, plasma. On the procedure:
Male SD rats weighing 150-300 grams were purchased from Shanghai Jiesijie Laboratory Animal Co., Ltd. The numbered compounds were prepared with 20 mM citrate buffer (pH=7.0), and then were injected into the rat via subcutaneous injection at a dose of 50 nanomoles per kilogram of body weight. 0.2 ml of the blood was sampled at time points of 0 hour, 0.5 hour, 1 hour, 2 hour, 4 hour, 6 hour, 8 hour, 24 hour, 32 hour, 48 hour, 72 hour, 96 hour and 120 hour. The collected rat blood was centrifuged at 6000 rpm for 6 minutes at a temperature of 4° C. to isolate plasma. The content of the numbered compound in rat plasma was detected by the experimental method of Test example 3.3.

Where [6] appears, read: Table 5, polypeptide compounds coupled to fatty acid.
The mark [7] stands for this setting: Table 4, polypeptide backbone compounds.

For “H-YAibEGTFTSDYSIYLEKIAAQEFVNWLLAGK(OEG-OEG-yGlu-C18-OH)PSSGAPPPS-NH2 [Compound 29]”, the results for the EC50 in series [1] (setting [6]) and in series [2] (setting [6]) were 0.24 nM and 0.015 nM, respectively.

Turning to “H-YAibEGTFTSDYSIYLEKIAAQEFVNWLIAGGPSSGAPPPS-NH2 [Compound 80]”, the EC50 in series [1] (setting [7]) and in series [2] (setting [7]) was 0.008 nM each time.

“H-YAibEGTFTSDYSIYLEKIAAQEFVNWLIAGGPSSGAPPPSK(OEG-OEG-yGlu-C20-OH)-NH2 [Compound 83]”: the EC50 was 0.028 nM in series [1] (setting [6]) and 0.032 nM in series [2] (setting [6]).

As to “H-YAibEGTFTSDYSIYLEKIAAK(OEG-OEG-yGlu-C18-OH)EFVNWLLAGGPSSGAPPPS-NH2 [Compound 30]”, the EC50 in series [1] (setting [6]) stood at 0.058 nM; in series [2] (setting [6]), 0.021 nM.

In the case of “H-YAibEGTFTSDYSIYLEKEAAK(OEG-OEG-yGlu-C18-OH)EFVNWLLAGGPSSGAPPPS-NH2 [Compound 27]”, the EC50 is 0.12 nM in series [1] (setting [6]) and 0.11 nM in series [2] (setting [6]).

In turn, “H-YAibEGTFTSDYSIYLEKIAAQEFVNWLLAGGPSSGAPPPSK-NH2 [Compound 14]” registered an EC50 in series [1] (setting [7]) of 0.008 nM. The EC50 in series [2] (setting [7]) is 0.006 nM. Moreover, in series [3] (Table 6), the “Relative content of the residual compounds in plasma (%) 0 min” value came to 100.00%, the “Relative content of the residual compounds in plasma (%) 30 min” value was 106.04%, the “Relative content of the residual compounds in plasma (%) 60 min” value is on record as 107.00% and the “Relative content of the residual compounds in plasma (%) 120 min” value is given as 112.14%. Further, the “Relative content of the residual compounds in plasma (%) 240 min” value in series [3] (Table 6) amounted to 102.16%.

Take “H-YAibEGTFTSDYSIYLEKEAAKEFVNWLLAGGPSSGAPPPSK(OEG-OEG-yGlu-C18-OH)-NH2 [Compound 25]”: the EC50 stood at 0.031 nM in series [1] (setting [6]) and 0.059 nM in series [2] (setting [6]).

Consider “H-YAibEGTFTSDYSIYLDKIAAK(OEG-OEG-yGlu-C18-OH)EFVNWLLAGGPSSGAPPPS-NH2 [Compound 60]”, for which the values for the EC50 in series [1] (setting [6]) and in series [2] (setting [6]) were 0.2 nM and 0.02 nM, respectively.

In the case of “H-YAibEGTFTSDYSIYLEKIAAQEFVNWLLAGGPSSGAPPPSK(OEG-OEG-yGlu-C18-OH)-NH2 [Compound 28]”, the values for the EC50 in series [1] (setting [6]) and in series [2] (setting [6]) were 0.074 nM and 0.02 nM, respectively. For the same substance, the AUCInf in series [4] came out at 9500 ng·h/mL. Further, the T1/2 in series [4] turned out to be 4.7 h.

Turning to “H-YAibEGTFTSDYSIYLDKIAAQEFVNWLL AGGPSSGAPPPSK(OEG-OEG-yGlu-C18-OH)-NH2 [Compound 62]”, the EC50 is 0.32 nM in series [1] (setting [6]) and 0.045 nM in series [2] (setting [6]).

In series [1] (setting [6]), “H-YAibEGTFTSDYSIYLEKIAAK(OEG-OEG-yGlu-C20-OH)EFVNWLLAGGPSSGAPPPS-NH2 [Compound 75]” yielded an EC50 of 0.2 nM. In series [2] (setting [6]), the EC50 turned out to be 0.16 nM. Also, in series [3] (Table 7), the “Relative content of the residual compounds in plasma (%) 0 min” value was 100.00%, the “Relative content of the residual compounds in plasma (%) 30 min” value is 101.51%, the “Relative content of the residual compounds in plasma (%) 60 min” value is listed as 92.07% and the “Relative content of the residual compounds in plasma (%) 120 min” value is on record as 84.74%. In addition, in series [3] (Table 7), the “Relative content of the residual compounds in plasma (%) 240 min” value was determined as 57.83%.

Take “H-HAibEGTFTSDVSSYLEEEAAKEFVNWLLAGGPSSGAPPPSK-NH2 [Compound 5]”: the half-maximal effective concentration (EC50) in series [1] (setting [7]) is 0.004 nM; in series [2] (setting [7]), greater than 10 nM.

With “H-YAibEGTFTSDYSIYLEKIAAQEFVNWLLAGGPSSGAPPPSK(OEG-OEG-yGlu-C20-OH)-NH2 [Compound 74]”, the EC50 in series [1] (setting [6]) is 0.068 nM. Also, in series [2] (setting [6]), the EC50 is 0.046 nM. In series [3] (Table 7), the “Relative content of the residual compounds in plasma (%) 0 min” value is 100.00%, the “Relative content of the residual compounds in plasma (%) 30 min” value was 95.54%, the “Relative content of the residual compounds in plasma (%) 60 min” value was found to be 104.74% and the “Relative content of the residual compounds in plasma (%) 120 min” value was determined as 100.10%. For the same substance, in series [3] (Table 7), the “Relative content of the residual compounds in plasma (%) 240 min” value is 91.16%. In series [3] (4 hour), the “relative content in plasma at a time point of 4 hour” value is on record as greater than 90%. In series [4], this substance registered an AUCInf of 30698 ng·h/mL and a T1/2 of 19.5 h. In series [5], this substance returned an AUCInf of 17673 ng·h/mL and a T1/2 of 15.9 h.

As to “H-HAibEGTFTSDVSSYLEEEAAKEFIAWLVRGGPSSGAPPPSK-NH2 [Compound 1]”, the EC50 was 0.005 nM in series [1] (setting [7]) and greater than 10 nM in series [2] (setting [7]).
